Reference: US6911542B2, “Pyrazino[1′,2′:1,6]pyrido[3,4b]indole derivatives” (Lilly Icos LLC., priority 2000, dated 2005)

Columns and labels:
human recombinant PDE5 = human recombinant PDE5 (Homo sapiens, UniProt O76074); experiment: cGMP-PDE one-step inhibition assay, human recombinant PDE5; format: biochemical; details: read-out: PDE5 IC50, 0.15 μM 8-[H3]-cGMP, 30 min incubation
[1] = target: PDE5 obtained from bovine aorta (Bos taurus, UniProt Q28156); experiment: cGMP-PDE inhibition assay using PDE5 obtained from bovine aorta; details: read-out: PDE5 IC50 (Bov. aorta)

COc1ccc(C2c3[nH]c4ccccc4c3CC3C(=O)N(CCN4CCOCC4)CC(=O)N32)cc1 (stereo not drawn)
IC50 (human recombinant PDE5): 10 nM

Nc1ccc(CN2CC(=O)N3[C@H](c4ccc5c(c4)OCO5)c4[nH]c5ccccc5c4C[C@@H]3C2=O)cc1
IC50 (human recombinant PDE5): 4.2 nM

O=C1[C@H]2Cc3c([nH]c4ccccc34)[C@@H](c3ccc4c(c3)OCO4)N2C(=O)CN1Cc1ccc(OCc2ccccc2)cc1
IC50 (human recombinant PDE5): 70 nM

O=C1[C@H]2Cc3c([nH]c4ccccc34)[C@@H](c3ccc4c(c3)OCO4)N2C(=O)CN1Cc1nc2ccccc2[nH]1 [45]
IC50 (human recombinant PDE5): 80 nM

CN1CCCC1CCN1CC(=O)N2[C@H](c3ccc4c(c3)OCO4)c3[nH]c4ccccc4c3C[C@@H]2C1=O (stereo partly drawn)
IC50 (human recombinant PDE5): 130 nM

O=C1[C@H]2Cc3c([nH]c4ccccc34)[C@@H](c3ccc4c(c3)OCO4)N2C(=O)CN1CCN1CC2CCC(CC2)C1
IC50 (human recombinant PDE5): 400 nM

O=C1[C@H]2Cc3c([nH]c4ccccc34)[C@@H](c3ccc4c(c3)OCO4)N2C(=O)CN1CCn1ccnc1 [53]
IC50 (human recombinant PDE5): 550 nM

O=C1[C@H]2Cc3c([nH]c4ccccc34)[C@@H](c3ccc4c(c3)OCO4)N2C(=O)CN1CCN1CCOCC1
IC50 (human recombinant PDE5): 10 nM

CC(C)N(CCN1CC(=O)N2[C@H](c3ccc4c(c3)OCO4)c3[nH]c4ccccc4c3C[C@@H]2C1=O)C(C)C (relative stereo)
IC50 (human recombinant PDE5): 470 nM
IC50 [1]: 1610 nM

CN(C)Cc1ccc(CN2CC(=O)N3[C@H](c4ccc5c(c4)OCO5)c4[nH]c5ccccc5c4C[C@@H]3C2=O)cc1 [65]
IC50 (human recombinant PDE5): 630 nM

O=C1[C@H]2Cc3c([nH]c4ccccc34)[C@@H](c3ccc4c(c3)OCO4)N2C(=O)CN1CCN1CCCCC1 (relative stereo)
IC50 [1]: 250 nM

Cc1cc(C)n(CCCN2CC(=O)N3[C@H](c4ccc5c(c4)OCO5)c4[nH]c5ccccc5c4C[C@@H]3C2=O)n1
IC50 (human recombinant PDE5): 8.4 nM

O=C1[C@H]2Cc3c([nH]c4ccccc34)[C@@H](c3ccc4c(c3)OCO4)N2C(=O)CN1CCN1CCOCC1 (relative stereo)
IC50 [1]: 60 nM

CN(C)c1ccc(CN2CC(=O)N3[C@H](c4ccc5c(c4)OCO5)c4[nH]c5ccccc5c4C[C@@H]3C2=O)cc1
IC50 (human recombinant PDE5): 20 nM

COc1ccc([C@@H]2c3[nH]c4ccccc4c3C[C@@H]3C(=O)N(CCN4C[C@@H](C)O[C@@H](C)C4)CC(=O)N23)cc1
IC50 (human recombinant PDE5): 10 nM

CCN(CC)CCN1CC(=O)N2[C@H](c3ccc4c(c3)OCO4)c3[nH]c4ccccc4c3C[C@@H]2C1=O (relative stereo)
IC50 [1]: 80 nM

O=C1[C@H]2Cc3c([nH]c4ccccc34)[C@@H](c3ccc4c(c3)OCO4)N2C(=O)CN1CCn1ccnc1 [55]
IC50 (human recombinant PDE5): 50 nM

O=C1[C@H]2Cc3c([nH]c4ccccc34)[C@@H](c3ccc4c(c3)OCO4)N2C(=O)CN1Cc1nc2ccccc2[nH]1 [61]
IC50 (human recombinant PDE5): 10 nM

O=C1[C@H]2Cc3c([nH]c4ccccc34)[C@@H](c3ccc4c(c3)OCO4)N2C(=O)CN1c1ccccc1
IC50 (human recombinant PDE5): 6.2 nM

O=C1[C@H]2Cc3c([nH]c4ccccc34)[C@@H](c3ccc4c(c3)OCO4)N2C(=O)CN1Cc1cccc([N+](=O)[O-])c1
IC50 (human recombinant PDE5): 50 nM

O=C1[C@H]2Cc3c([nH]c4ccccc34)[C@@H](c3ccc4c(c3)OCO4)N2C(=O)CN1CC1CCCO1 (stereo partly drawn)
IC50 (human recombinant PDE5): 30 nM

CC1C(=O)N2[C@H](c3ccc4c(c3)OCO4)c3[nH]c4ccccc4c3C[C@@H]2C(=O)N1Cc1ccc(N(C)C)cc1 (stereo partly drawn)
IC50 (human recombinant PDE5): 70 nM

Nc1cccc(CN2CC(=O)N3[C@H](c4ccc5c(c4)OCO5)c4[nH]c5ccccc5c4C[C@@H]3C2=O)c1
IC50 (human recombinant PDE5): 8.8 nM
